In this assay the target is T1, Receptor-type tyrosine-protein phosphatase C (Homo sapiens) (UniProt P08575).
T1 sequence (whole entry): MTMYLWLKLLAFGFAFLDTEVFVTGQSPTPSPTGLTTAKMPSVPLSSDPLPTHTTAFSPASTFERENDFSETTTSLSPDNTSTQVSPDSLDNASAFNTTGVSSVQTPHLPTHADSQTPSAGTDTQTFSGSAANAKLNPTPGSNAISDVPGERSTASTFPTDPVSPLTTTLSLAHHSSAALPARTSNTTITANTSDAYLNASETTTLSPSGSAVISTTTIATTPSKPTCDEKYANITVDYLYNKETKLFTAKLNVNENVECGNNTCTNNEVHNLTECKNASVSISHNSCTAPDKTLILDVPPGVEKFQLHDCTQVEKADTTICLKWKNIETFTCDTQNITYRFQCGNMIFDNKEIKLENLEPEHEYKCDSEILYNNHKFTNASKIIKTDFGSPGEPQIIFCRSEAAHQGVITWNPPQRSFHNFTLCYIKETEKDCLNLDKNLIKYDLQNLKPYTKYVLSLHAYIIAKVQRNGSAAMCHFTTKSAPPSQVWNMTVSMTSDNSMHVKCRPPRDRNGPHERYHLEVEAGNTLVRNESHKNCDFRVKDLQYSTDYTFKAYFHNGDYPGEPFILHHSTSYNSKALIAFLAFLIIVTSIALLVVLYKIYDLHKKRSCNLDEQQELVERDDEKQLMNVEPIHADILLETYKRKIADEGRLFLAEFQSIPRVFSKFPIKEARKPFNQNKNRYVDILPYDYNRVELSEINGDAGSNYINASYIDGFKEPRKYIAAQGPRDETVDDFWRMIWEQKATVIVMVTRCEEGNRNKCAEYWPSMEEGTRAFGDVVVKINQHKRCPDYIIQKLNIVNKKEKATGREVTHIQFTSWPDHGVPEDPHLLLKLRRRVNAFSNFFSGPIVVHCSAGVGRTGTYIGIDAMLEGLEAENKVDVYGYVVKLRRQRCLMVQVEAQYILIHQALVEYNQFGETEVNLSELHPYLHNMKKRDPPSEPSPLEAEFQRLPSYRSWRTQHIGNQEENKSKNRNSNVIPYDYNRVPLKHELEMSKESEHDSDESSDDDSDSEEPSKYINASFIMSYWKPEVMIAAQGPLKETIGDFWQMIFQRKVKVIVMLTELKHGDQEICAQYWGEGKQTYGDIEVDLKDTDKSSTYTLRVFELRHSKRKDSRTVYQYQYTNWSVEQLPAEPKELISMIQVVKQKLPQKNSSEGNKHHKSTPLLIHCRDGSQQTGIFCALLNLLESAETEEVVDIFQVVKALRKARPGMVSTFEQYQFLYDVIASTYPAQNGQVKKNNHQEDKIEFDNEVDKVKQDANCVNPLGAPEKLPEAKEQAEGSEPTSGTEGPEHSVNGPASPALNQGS
Description: Compound was tested for its inhibitory activity against CD-45 tyrosine phosphatase of Jurkat cell membrane at 500 uM concentration.

Structures are written as SMILES.

As a reminder, the inhibition is the change of the read-out against control, counted positive when it falls. A high value points to a response far below the control. Turning to `[N-]=[N+]=Nc1ccc([N+](=O)[O-])cc1C(O)P(=O)(O)O` (stereo unspecified), the inhibition was 97%.
